## Curated experimental data: properties

Data: OPERA 2.9 data sets, kmansouri/OPERA on GitHub.

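These are experimental values that the OPERA curators gathered from public databases to train and test their QSAR models. One number stands for a compound and property, with no spread given. How each value was measured is not recorded, so precision varies. A value may pool stereoisomers or salt forms, and the file does not say which form was measured. Some entries may be limits or estimates that an upstream database listed as plain numbers.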

The melting point is given in degrees Celsius.
Boiling points are in °C, nominally at 760 mmHg.
The octanol-water partition coefficient is given as log10; larger values mean a more lipophilic compound.
Water solubility is log10 of mol/L, nominally at 25 °C; higher is more soluble.
Vapor pressure is log10 of mmHg; the set covers 15 to 30 °C, mostly 20 to 25 °C.
Henry's law constant (air-water partitioning) is log10 of atm·m3/mol, nominally at 25 °C.
fu is the fraction unbound in human plasma, from 0 to 1.
Intrinsic clearance (human, µL/min per 10^6 hepatocytes): higher is faster turnover, and 0 stands for none detected.
Cells with "n/a" have no entry in this list.

| structure (SMILES) | name | mp (°C) | bp (°C) | logP | log S (log10 mol/L) | log VP (log10 mmHg) | Henry's law constant (log10 atm·m3/mol) | fraction unbound | Clint (µL/min/10^6 cells) |
|---|---|---|---|---|---|---|---|---|---|
| CC(C)(C=O)CC1=CCC2CC1C2(C)C (centres undefined) | n/a | n/a | n/a | 5.4 | -4.281 | -1.593 | n/a | n/a | n/a |
| CC(C)(N)CO.CCCCCCCCCCCCc1ccccc1S(=O)(=O)O | n/a | n/a | n/a | 0.17 | 0.214 | -9.837 | n/a | n/a | n/a |
| O=C1CCCCCCCCCCC1Cl (centres undefined) | 2-Chlorocyclododecanone | 58 | n/a | n/a | n/a | -3.426 | n/a | n/a | n/a |
| CCCCOC(=O)c1ccc(O)cc1 | Butylparaben | n/a | n/a | n/a | n/a | n/a | n/a | 0.04157 | 39.3 |
| Cc1ccc(S(=O)(=O)Oc2ccc(/N=N/c3cccc(Nc4ccc(S(=O)(=O)[O-])cc4[N+](=O)[O-])c3)c(C)c2)cc1.[Na+] | C.I. Acid Orange 67 | n/a | n/a | 1.03 | -3.263 | n/a | n/a | n/a | n/a |
| O=C(O)COCCOCCOCC(=O)O | 2,2'-(Oxybis(2,1-ethanediyloxy))bisacetic acid | -29.05 | n/a | n/a | n/a | -6.201 | n/a | n/a | n/a |
| C1CNCCNCCNCCN1 | Cyclen | n/a | n/a | -1.5 | n/a | -4.364 | n/a | n/a | n/a |
| Cc1ccc(N2C(=O)C=CC2=O)cc1N1C(=O)C=CC1=O | Toluene-2,4-dimaleimide | 175 | n/a | n/a | -3.678 | n/a | n/a | n/a | n/a |
| CS(=O)(=O)OC[C@H]1CO[C@](Cn2ccnc2)(c2ccc(Cl)cc2Cl)O1.Cl (relative stereo) | n/a | 166.6 | n/a | 2.2 | n/a | n/a | n/a | n/a | n/a |
| CCCCCCCCCCCCCCCCCCOCCCCCCCCCCCCCCCCCC | 1-(Octadecyloxy)octadecane | n/a | 401 | 4.1 | -7.02 | n/a | n/a | n/a | n/a |
| [N-]=[N+]=C1C=C(S(=O)(=O)Cl)c2ccccc2C1=O | 1-Naphthalenesulfonyl chloride, 3-diazo-3,4-dihydro-4-oxo- | n/a | n/a | 1.4 | -2.849 | -6.806 | n/a | n/a | n/a |
| CCCCC(CC)CNCC(CC)CCCC (centres undefined) | 2-Ethyl-N-(2-ethylhexyl)-1-hexanamine | n/a | n/a | 7.3 | -3.73 | n/a | n/a | n/a | n/a |
| CCCCCCCC | Octane | n/a | n/a | n/a | n/a | n/a | n/a | 0.1031 | 0.6933 |
| OC1CCCCCCCCCCC1 | Cyclododecanol | n/a | n/a | 4.18 | -3.796 | n/a | n/a | n/a | n/a |
| C=CCCCCCCCCCCCC | 1-Tetradecene | n/a | n/a | 7.08 | -7.162 | n/a | -0.608 | n/a | n/a |
| CCOc1ccccc1NC(=O)C(=O)Nc1ccc(CCCCCCCCCC(C)C)cc1 | n/a | n/a | 365.9 | 4.4 | -6.099 | -5.94 | n/a | n/a | n/a |
| NCCN1CCNCC1 | 1-(2-Aminoethyl)piperazine | n/a | n/a | -1.48 | n/a | -1.413 | n/a | n/a | n/a |
| CCCCCCCCCCCC1=NC(C)(C)CO1 | 2-Oxazoline, 4,4-dimethyl-2-undecyl- | -25.69 | n/a | n/a | n/a | -1.943 | n/a | n/a | n/a |
| Nc1nc(N)c2nc(CNc3ccc(C(=O)N[C@@H](CCC(=O)O)C(=O)O)cc3)cnc2n1 | Aminopterin | n/a | n/a | n/a | -2.167 | n/a | n/a | n/a | 0 |
| COC(=O)c1cccc(C)c1S(=O)(=O)NC(=O)Nc1nc(OCC(F)(F)F)nc(N(C)C)n1 | Triflusulfuron-methyl | n/a | n/a | n/a | -3.28 | n/a | n/a | 0.3293 | 14.47 |
| Cc1cc(C2C(=O)Oc3c2cc(C(C)(C)C)cc3C(C)(C)C)cc(C)c1OP1Oc2cc(C(C)(C)C)cc(C(C)(C)C)c2C(C)c2c(cc(C(C)(C)C)cc2C(C)(C)C)O1 (centres undefined) | n/a | 180 | n/a | n/a | -8.222 | n/a | n/a | n/a | n/a |
| CCCCCCCCCCCCCCCCCCOCCC[N+](C)(C)C.[Cl-] | Stearoxypropyltrimonium chloride | 228.8 | n/a | n/a | n/a | -4.979 | n/a | n/a | n/a |
| C=CCCC(=O)Oc1ccccc1 | Phenyl pent-4-enoate | n/a | 243.8 | 2.76 | -2.716 | -1.624 | n/a | n/a | n/a |
| O=C1c2ccccc2-c2ccc3c4ccc5c6c(ccc(c7ccc1c2c73)c64)C(=O)c1ccccc1-5 | Vat Blue 20 | n/a | n/a | 2.1 | -5.513 | n/a | n/a | n/a | n/a |
| CN(C)C(=O)c1cc2cnc(Nc3ccc(N4CCN(C(=O)OC(C)(C)C)CC4)cn3)nc2n1C1CCCC1 | n/a | 220 | n/a | n/a | -6.337 | -7.992 | n/a | n/a | n/a |
| Cc1ccc(C(=O)O)c(Oc2ccccc2CC(=O)O)c1C | 2-[2-(Carboxymethyl)phenoxy]-3,4-dimethylbenzoic acid | n/a | n/a | n/a | -4.222 | -10 | n/a | n/a | n/a |
| C=C(C)C(=O)OC1CCCCC1 | Cyclohexyl methacrylate | -104 | n/a | 3.13 | -3.095 | -0.821 | n/a | n/a | n/a |
| CC=C(Cl)C(=O)O | 2-Chlorocrotonic acid | 99.8 | 212 | n/a | n/a | n/a | n/a | n/a | n/a |
| O=C(O)c1cc(Br)nn1-c1ncccc1Cl | n/a | 199 | n/a | n/a | -1.784 | -6.516 | n/a | n/a | n/a |
| CC1(C)S[C@@H]2[C@H](NC(=O)[C@H](NC(=O)N3CCN(S(C)(=O)=O)C3=O)c3ccccc3)C(=O)N2[C@H]1C(=O)O | Mezlocillin | n/a | n/a | n/a | -3.059 | n/a | n/a | 0.695 | n/a |
| CC(C)(CS(=O)(=O)[O-])NC(=O)CCSCCC(F)(F)C(F)(F)C(F)(F)C(F)(F)C(F)(F)C(F)(F)F.[Na+] | Lodyne S 103A | 184.5 | n/a | n/a | n/a | -4.614 | n/a | n/a | n/a |
| [Na+].[Na+].[O-]c1c(-c2[nH]c3ccccc3c2[O-])[nH]c2ccccc12 | [2,2'-Bi-1H-indole]-3,3'-diol, disodium salt | 125 | n/a | 1.4 | n/a | n/a | n/a | n/a | n/a |
| COc1ccc(C(=O)Nc2ccccc2)cc1N | 3-Amino-4-methoxybenzanilide | n/a | n/a | 2.08 | -3.866 | n/a | n/a | n/a | n/a |
| CCO[Si](CCC1CCC2OC2C1)(OCC)OCC (centres undefined) | 2-(3,4-Epoxycyclohexyl)ethyltriethoxy silane | n/a | n/a | 4.55 | -2.533 | -2.401 | n/a | n/a | n/a |
| FC(F)=C(F)OC(F)(F)C(F)(F)C(F)(F)OC(F)(F)F | Hexafluoro-1-trifluoromethoxy-3-trifluorovinyloxypropane | n/a | 65.55 | n/a | n/a | 2.051 | n/a | n/a | n/a |
| Cc1coc2ccc(O)cc12 | 3-Methyl-1-benzofuran-5-ol | 92.5 | n/a | n/a | -2.018 | -3.185 | n/a | n/a | n/a |

The first 2 entries again:

| structure (SMILES) | name | mp (°C) | bp (°C) | logP | log S (log10 mol/L) | log VP (log10 mmHg) | Henry's law constant (log10 atm·m3/mol) | fraction unbound | Clint (µL/min/10^6 cells) |
|---|---|---|---|---|---|---|---|---|---|
| CC(C)(C=O)CC1=CCC2CC1C2(C)C (centres undefined) | n/a | n/a | n/a | 5.4 | -4.281 | -1.593 | n/a | n/a | n/a |
| CC(C)(N)CO.CCCCCCCCCCCCc1ccccc1S(=O)(=O)O | n/a | n/a | n/a | 0.17 | 0.214 | -9.837 | n/a | n/a | n/a |